PMC12579213

Legend:
[1] = target: 6xHis-CRIB_PAK1 (Homo sapiens); assay: BLI; conditions: natural protein
6xHis-tagged RBD_(ROCK1) = 6xHis-tagged RBD_(ROCK1) (UniProt Q13464); assay: BLI; BLItz instrument; His-tagged protein loaded on Ni-NTA biosensor for 90 s; association and dissociation 120 s; three concentrations

| Kd [1] [nM] | koff [1] [s⁻¹] | fold lower affinity than RhoA-ROCK (6xHis-tagged RBD_(ROCK1)) [fold] | Substance |
| --- | --- | --- | --- |
| 35 | 0.00119 |  | GST-tagged Rac1 (Q61L) (from UniProt P63000 1-192) |
|  |  | 1.8 | GST-tagged Rac1 (Q61L) (from UniProt P63000 1-192) (natural protein) |
|  |  | 5.8 | GST-tagged Rac1F37W (Q61L) (from UniProt P63000 1-192) (natural protein) |
